“And” between values parts separate entries of the source, which are not always exact repeats. Identical values can stand only once. “Also recorded” adds a separate entry of the source.
Assays:
VPAC1-R [1] = target: T1, VPAC1-R (Homo sapiens, UniProt P32241); experiment: [3H]cAMP generation in VPAC1-R/PANC-1 cells; assay type: cell-based; conditions: for EC50: read-out: [3H]cAMP VPAC1-R/PANC-1 EC50; for EC50 / [3H]cAMP VPAC1-R/PANC-1 % max of partial agonist / [3H]cAMP VPAC1-R/PANC-1 % max (agonist class): VPAC1-R/PANC-1 cells; for [3H]cAMP VPAC1-R/PANC-1 % max of partial agonist: partial agonist maximum; for [3H]cAMP VPAC1-R/PANC-1 % max (agonist class): relative to PACAP38, up to 1 µM
VPAC2-R [2] = target: T2, VPAC2-R (Homo sapiens, UniProt P41587); experiment: [3H]cAMP generation in VPAC2-R/PANC-1 cells; assay type: cell-based; conditions: read-out: [3H]cAMP VPAC2-R/PANC-1 EC50; VPAC2-R/PANC-1 cells
T2 sequence (P41587 24-438): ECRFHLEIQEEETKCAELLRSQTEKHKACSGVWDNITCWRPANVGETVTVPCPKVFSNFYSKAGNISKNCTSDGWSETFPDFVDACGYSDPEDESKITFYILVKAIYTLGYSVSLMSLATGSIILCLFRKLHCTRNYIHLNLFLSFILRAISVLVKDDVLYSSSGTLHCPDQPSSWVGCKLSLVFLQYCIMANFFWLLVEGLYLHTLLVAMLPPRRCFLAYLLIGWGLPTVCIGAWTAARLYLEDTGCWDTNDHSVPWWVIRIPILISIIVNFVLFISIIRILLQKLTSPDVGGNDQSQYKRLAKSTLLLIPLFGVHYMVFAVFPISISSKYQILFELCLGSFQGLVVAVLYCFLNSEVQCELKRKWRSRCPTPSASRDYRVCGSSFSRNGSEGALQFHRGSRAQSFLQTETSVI

The chains behind the UniProt entries cited, without tags or fusion partners. Residues count along the entry.
UniProt P32241, 31-457, species assumed: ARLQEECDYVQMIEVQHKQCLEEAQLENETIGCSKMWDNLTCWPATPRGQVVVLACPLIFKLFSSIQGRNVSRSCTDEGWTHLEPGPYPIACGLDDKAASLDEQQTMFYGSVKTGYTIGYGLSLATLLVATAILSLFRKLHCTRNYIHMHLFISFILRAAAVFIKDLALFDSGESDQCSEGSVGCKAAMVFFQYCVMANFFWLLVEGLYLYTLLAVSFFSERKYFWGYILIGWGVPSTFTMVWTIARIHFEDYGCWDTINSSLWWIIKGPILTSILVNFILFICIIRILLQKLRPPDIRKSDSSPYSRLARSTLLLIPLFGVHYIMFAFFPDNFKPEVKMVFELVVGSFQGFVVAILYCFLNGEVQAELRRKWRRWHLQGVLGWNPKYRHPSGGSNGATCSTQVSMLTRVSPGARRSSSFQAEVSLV

VPAC1-R [3] = target: T1, VPAC1-R; experiment: Binding of 125I-VIP to VPAC1-R/PANC-1 cells; conditions: ratio of binding IC50, analog vs native parent peptide
PAC1-R [4] = target: T3, PAC1-R (Homo sapiens, UniProt P41586); experiment: [3H]cAMP generation in PAC1-R cells; assay type: cell-based; conditions: for higher potency for PAC1-R cells compared to VPAC1-R/PANC-1 cells / higher potency for PAC1-R cells compared to VPAC2-R/PANC-1 cells: cAMP generation EC50 ratio; for EC50: read-out: [3H]cAMP PAC1-R EC50, PAC1-R cells
T3 sequence (P41586 21-468): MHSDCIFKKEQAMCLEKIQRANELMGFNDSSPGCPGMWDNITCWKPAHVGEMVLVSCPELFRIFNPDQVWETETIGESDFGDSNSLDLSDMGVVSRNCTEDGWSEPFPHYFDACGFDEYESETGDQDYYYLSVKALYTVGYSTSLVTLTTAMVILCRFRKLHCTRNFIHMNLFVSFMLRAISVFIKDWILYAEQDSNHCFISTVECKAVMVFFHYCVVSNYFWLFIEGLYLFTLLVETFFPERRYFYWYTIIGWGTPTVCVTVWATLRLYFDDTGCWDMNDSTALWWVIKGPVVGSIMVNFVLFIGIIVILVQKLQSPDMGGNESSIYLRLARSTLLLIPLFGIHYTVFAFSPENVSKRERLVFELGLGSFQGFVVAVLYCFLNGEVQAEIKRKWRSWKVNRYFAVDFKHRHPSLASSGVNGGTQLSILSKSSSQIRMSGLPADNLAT

VPAC1-R [5] = target: T1, VPAC1-R; experiment: [3H]cAMP generation in T47D cells; assay type: cell-based; conditions: T47D cells; for EC50: read-out: [3H]cAMP T47D EC50; for [3H]cAMP T47D % max (agonist class): relative to PACAP38, up to 1 µM
VPAC2-R [6] = target: T2, VPAC2-R; assay type: binding; conditions: read-out: IC50 VPAC2-R, Sup-T1; Sup-T1 cells, 75 pM 125I-Ro 25-1553, 37°C
PAC1-R [7] = target: T3, PAC1-R; experiment: Binding of 125I-PACAP27 to PAC1-R stably transfected NIH 3T3 cells; conditions: for higher affinity (selectivity) for PAC1-R cells over VPAC2-R/PANC-1 cells: IC50 VPAC2-R/PANC-1 divided by IC50 PAC1-R, binding; for decrease in affinity for PAC1-R cells compared to native PACAP38 (or PACAP27): ratio of binding IC50, analog vs native parent peptide

| Substance | EC50 (VPAC1-R [1]) | EC50 (VPAC2-R [2]) | decrease in affinity for VPAC1-R/PANC-1 cells compared to native PACAP38 (or PACAP27, VIP) (VPAC1-R [3]) | higher potency for PAC1-R cells compared to VPAC1-R/PANC-1 cells (PAC1-R [4]) | higher potency for PAC1-R cells compared to VPAC2-R/PANC-1 cells (PAC1-R [4]) | EC50 (PAC1-R [4]) | EC50 (VPAC1-R [5]) | IC50 (VPAC2-R [6]) | higher affinity (selectivity) for PAC1-R cells over VPAC2-R/PANC-1 cells (PAC1-R [7]) | decrease in affinity for PAC1-R cells compared to native PACAP38 (or PACAP27) (PAC1-R [7]) | [3H]cAMP VPAC1-R/PANC-1 % max of partial agonist (VPAC1-R [1]) | [3H]cAMP VPAC1-R/PANC-1 % max (agonist class) (VPAC1-R [1]) | [3H]cAMP T47D % max of partial agonist (VPAC1-R [5]; partial agonist maximum) | [3H]cAMP T47D % max (agonist class) (VPAC1-R [5]) | greater affinity than potency for stimulating cAMP generation, VPAC1-R/PANC-1 cells (VPAC1-R [1]; EC50 cAMP over binding IC50) | greater affinity than potency, PAC1-R cells (PAC1-R [4]; EC50 cAMP over binding IC50) |
| --- | --- | --- | --- | --- | --- | --- | --- | --- | --- | --- | --- | --- | --- | --- | --- | --- |
| [N-Ac-His^1,Ala^16,17,D-Lys^38]PACAP38 [Peptide P28] | 0.95 ± 0.12 nM | 3.02 ± 0.1 nM | 3–20 fold | 6–15 fold | 34 fold | 0.09 ± 0.01 nM | 7.08 ± 0.71 nM | 0.32 ± 0.02 nM | same affinity | 4–5 fold | – | – | – | – | – | – |
| [Aib^2,Lys(palmitoyl)^38]PACAP38 [Peptide P14] | 9.12 ± 0.56 nM | 3.31 ± 0.2 nM | 11–40 fold | 16–50 fold and 15-to-666 fold | 7.4 fold | 0.45 ± 0.02 nM | 6.68 ± 0.28 nM | 13.2 ± 0.2 nM | – | 11–30 fold | pAg (80) % max | partial agonists; also recorded: pAg (80) | pAg (62) % max | pAg (62) | – | – |
| [Aib^16,Ala^17,Lys^34]PACAP38 [Peptide P30] | 1.38 ± 0.21 nM | 3.8 ± 0.18 nM | 3–20 fold | 6–15 fold | 7-to-15 fold | 0.25 ± 0.02 nM | 3.24 ± 0.24 nM | 2.95 ± 0.07 nM | – | 10–30 fold | – | – | – | – | – | – |
| [Iaa^1,D-Ser^2,Ala^22]PACAP38 [Peptide P48] | 83 ± 9 nM | > 1000 nM | 180-to-620 fold | 16–50 fold | > 1,000 fold | 2.19 ± 0.17 nM | 501 ± 27 nM | 295 ± 16 nM | – | 100–300 fold | – | – | – | – | – | – |
| [Hyp^3,Ala^16,17]PACAP38 [Peptide P20] | > 1000 nM | > 1000 nM | 180-to-620 fold | 16–50 fold | 22–55 fold | 139 ± 10 nM | > 1000 nM | 380 ± 15 nM | same affinity | > 350 fold | pAg (25) % max | partial agonists; also recorded: pAg (25) | – | No Act | 1.2–65.2 fold | 1.2- to 64 fold |
